{
  "source": "paper PMC3084282",
  "key": {"[1]": {"target": "α-crystallin (human lens extract) (human (endogenous in lens)) (UniProt P02489)"}, "[2]": {"target": "α-crystallin (human lens extract) (human (endogenous in lens)) (UniProt P02489)", "remark": "listed apart in the source"}},
  "data": [
    {"substance": "αA-(66-80-Pro) peptide", "values": [
      {"measurement": "Amount of human lens proteins precipitated by the peptide (µg): 25 µg peptide with 2 mg water-soluble extract of human lens, 50 mM phosphate pH 7.2, 37°C, 24 h; extract alone ∼12 µg", "setting": "[1]", "value": 14, "unit": "µg"}
    ]},
    {"substance": "αA-(66-80-Ala) peptide", "values": [
      {"measurement": "Amount of human lens proteins precipitated by the peptide (µg): 25 µg peptide with 2 mg water-soluble extract of human lens, 50 mM phosphate pH 7.2, 37°C, 24 h; extract alone ∼12 µg", "setting": "[1]", "value": 103, "unit": "µg"}
    ]},
    {"substance": "αA-(66-80-Scr) peptide", "values": [
      {"measurement": "Amount of human lens proteins precipitated by the peptide (µg): 25 µg peptide with 2 mg water-soluble extract of human lens, 50 mM phosphate pH 7.2, 37°C, 24 h; extract alone ∼12 µg", "setting": "[1]", "value": 19, "unit": "µg"}
    ]},
    {"substance": "αA-(66-80) peptide", "values": [
      {"measurement": "Amount of human lens proteins precipitated by the peptide (µg): 25 µg peptide with 2 mg water-soluble extract of human lens, 50 mM phosphate pH 7.2, 37°C, 24 h; extract alone ∼12 µg", "setting": "[1]", "value": 139, "unit": "µg"},
      {"measurement": "protein precipitated after 24 h at 37°C from human lens crystallins (0.5–9 mg) with 2.5–10 µg of peptide in 1 ml buffer", "setting": "[2]", "value": 40, "unit": "µg"}
    ]}
  ]
}
